Test results reported in ChEMBL document CHEMBL4373696, “Probing the Existence of a Metastable Binding Site at the β2-Adrenergic Receptor with Homobivalent Bitopic Ligands” (J Med Chem, 2019).

The chains behind the UniProt entries cited, without tags or fusion partners.
UniProt P08588, whole entry: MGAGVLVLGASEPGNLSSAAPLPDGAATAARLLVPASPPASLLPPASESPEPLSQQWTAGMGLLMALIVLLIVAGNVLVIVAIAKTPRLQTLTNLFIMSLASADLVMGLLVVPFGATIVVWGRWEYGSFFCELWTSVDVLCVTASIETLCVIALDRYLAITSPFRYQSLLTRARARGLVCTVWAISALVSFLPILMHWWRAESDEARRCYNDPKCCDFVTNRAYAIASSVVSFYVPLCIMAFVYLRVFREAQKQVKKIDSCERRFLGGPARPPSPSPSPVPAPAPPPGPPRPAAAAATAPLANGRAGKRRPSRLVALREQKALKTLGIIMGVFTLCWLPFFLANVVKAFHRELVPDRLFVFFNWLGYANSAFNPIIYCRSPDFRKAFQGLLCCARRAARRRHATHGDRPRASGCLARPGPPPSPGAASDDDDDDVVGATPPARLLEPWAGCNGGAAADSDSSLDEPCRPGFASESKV

Legend:
[1] = biological target: T1, Beta-1 adrenergic receptor (Homo sapiens, UniProt P08588); experiment: Displacement of [3H]DHA from beta1 adrenergic receptor (unknown origin) stably expressed in HEK293 cell membranes measured after 90 mins by scintillation counting analysis
[2] = biological target: T1, Beta-1 adrenergic receptor; experiment: Antagonist activity at beta1 adrenergic receptor (unknown origin) stably expressed in HEK293 cell membranes assessed as inhibition of isoproterenol-induced cAMP production preincubated for 15 mins followed by isoproterenol addition and measured after 30 mins by TR-FRET assay; assay type: cell-based
Outline: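 Membranes from HEK293 cells stably overexpressing β1AR; ligand's blockade of isoproterenol-stimulated cAMP production measured; pIC50 as mean ± SEM from 3-8 independent experiments run in duplicate.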

Ki [1] | IC50 [2] | Compound
1.45 nM | – | C=CCc1ccccc1OC[C@@H](O)CNC(C)C
64.6 nM | 437 nM | C=CCc1ccccc1OC[C@H](O)CNC(C)C
– | 13.8 nM | C=CCc1ccccc1OCC(O)CNC(C)C (racemic) [ALPRENOLOL]
